Measurements reported in ChEMBL document CHEMBL1165876, “Novel bis-phenanthridine derivatives with easily tunable linkers, study of their interactions with DNA and screening of antiproliferative activity” (Eur J Med Chem, 2010).

What was measured:
Calf thymus DNA [1] = test: Binding affinity to calf thymus DNA assessed as fluorescence quenching at pH 7 by fluorimetric titration; type: nucleic-acid assay; details: Bos taurus
Calf thymus DNA [2] = test: Binding affinity to calf thymus DNA assessed as fluorescence quenching at pH 5 by fluorimetric titration; type: nucleic-acid assay; details: Bos taurus

What does the source list for `Cc1nc2ccccc2c2ccc(C[C@H](NC(=O)CNC(=O)[C@@H](N)Cc3ccc4c(c3)c(C)nc3ccccc34)C(=O)O)cc12`?
log Ks (Calf thymus DNA [1]): 6; log Ks (Calf thymus DNA [2]): 6.9

With `Cc1nc2ccccc2c2ccc(C[C@H](N)C(=O)O)cc12` as the compound, how does the log Ks (Calf thymus DNA [1]) read?
Its log Ks is 4.5.

What about the log Ks (Calf thymus DNA [2]) of the same compound?
The log Ks was 5.4.
